PubChem BioAssay AID619 (University of Pittsburgh Molecular Library Screening Center, 2007)
This is a selection; strong and weak results do not stand in their true shares. Activity calls are given as the source filed them.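 The calls were made as follows: active = inhibition of 50% or more in the single-concentration screen; inactive = inhibition below 50%.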

Chains of the proteins cited; added tags and fusions are not shown.
UniProt P53350, whole entry: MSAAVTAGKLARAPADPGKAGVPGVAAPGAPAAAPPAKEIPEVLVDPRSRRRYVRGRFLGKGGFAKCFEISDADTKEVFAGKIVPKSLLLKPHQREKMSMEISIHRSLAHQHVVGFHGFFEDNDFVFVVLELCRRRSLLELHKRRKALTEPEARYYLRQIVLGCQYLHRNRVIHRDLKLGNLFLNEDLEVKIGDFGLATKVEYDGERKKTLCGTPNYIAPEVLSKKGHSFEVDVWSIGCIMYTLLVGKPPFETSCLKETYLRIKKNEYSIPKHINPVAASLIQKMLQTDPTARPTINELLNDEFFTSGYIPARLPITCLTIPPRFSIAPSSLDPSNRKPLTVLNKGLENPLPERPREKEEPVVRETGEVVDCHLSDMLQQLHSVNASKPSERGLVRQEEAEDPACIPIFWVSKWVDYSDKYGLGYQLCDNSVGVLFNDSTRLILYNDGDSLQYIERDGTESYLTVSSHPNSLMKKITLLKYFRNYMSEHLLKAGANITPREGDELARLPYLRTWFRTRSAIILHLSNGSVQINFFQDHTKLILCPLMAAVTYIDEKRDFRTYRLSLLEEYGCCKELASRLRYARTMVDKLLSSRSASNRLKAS

Target: Serine/threonine-protein kinase PLK1 (Homo sapiens) (UniProt P53350)
Assay: Plk1 peptide phosphorylation blockers – biochemical, TR-FRET, primary screen (AID 619);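 also: 0% = DMSO max control and 100% = H-89 dihydrochloride min control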
Details: recombinant PLK1 kinase, at 10 µM, active compounds read high

Q: With `COc1ccccc1OP(C)(=O)Nc1c(C)cccc1C` (stereo not given) as the compound, how does the inhibition read?
A: Its inhibition is inactive: -2.36%.

Q: With `Cc1nc2ccc3ccccc3c2s1.O=[N+]([O-])c1cc([N+](=O)[O-])c(O)c([N+](=O)[O-])c1` as the compound, how does the inhibition read?
A: Its inhibition is inactive: -2.41%.

Q: How did the inhibition turn out when `Cc1ccc(C)c(NP(C)(=O)Oc2ccccc2)c1` (stereo not given) was run?
A: The inhibition was inactive: 1.33%.

Q: Which inhibition does the source give for `Cc1cc(C)cc(OP(C)(=O)Nc2ccccn2)c1` (stereo not given) here?
A: Its inhibition is inactive: -0.37%.

Q: Which inhibition does the source give for `Cc1cc(C)cc(OP(C)(=O)Nc2ccc(C)cc2C)c1` (stereo not given) here?
A: Its inhibition is inactive: 0.67%.

Q: Which inhibition does the source give for `COc1ccc(OP(C)(=O)Nc2cccc(F)c2)cc1` (stereo not given) here?
A: Its inhibition is inactive: -6.41%.

Q: How did the inhibition turn out when `CP(=O)(Nc1ccccn1)Oc1ccc(Cl)cc1` (stereo not given) was run?
A: The inhibition was inactive: -8.05%.

Q: How did the inhibition turn out when `CP(=O)(NC(=O)Nc1ccccc1)Oc1ccccc1` (stereo not given) was run?
A: The inhibition was inactive: -16.3%.

Q: How did the inhibition turn out when `CP(=S)(Nn1cnnc1)Oc1ccccc1` (stereo not given) was run?
A: The inhibition was inactive: -14%.

Q: `CP(=O)(OC12CC3CC(CC(C3)C1)C2)OC12CC3CC(CC(C3)C1)C2` was tested. Which inhibition did it give?
A: The inhibition was inactive: -12.6%.

Q: Which inhibition does the source give for `CC(C)(C)c1ccc(OP(C)(=O)O)cc1` here?
A: Its inhibition is inactive: -5.11%.

Q: Which inhibition does the source give for `CP(=O)(Nc1ccc(Cl)cc1)Oc1ccc(F)cc1` (stereo not given) here?
A: Its inhibition is inactive: -9.79%.

Q: `COc1ccccc1OP(C)(=O)Nc1c(C)n(C)n(-c2ccccc2)c1=O` (stereo not given) was tested. Which inhibition did it give?
A: The inhibition was inactive: -18.1%.

Q: Which inhibition does the source give for `CP(=O)(Oc1ccccc1)N1CCOC1=O` (stereo not given) here?
A: The inhibition was inactive: -12.7%.

Q: With `CCN(CC)CC(O)COC(=O)C(O)(c1ccccc1)C1CCCCC1` (stereo not given) as the compound, how does the inhibition read?
A: The inhibition was inactive: -2.15%.

Q: How did the inhibition turn out when `CP(=O)(Nc1ccccn1)Oc1ccccc1` (stereo not given) was run?
A: The inhibition was inactive: -7.61%.

Q: How did the inhibition turn out when `COc1ccccc1OP(C)(=O)Nc1ccc(C)cc1C` (stereo not given) was run?
A: The inhibition was inactive: -16.1%.

Q: With `CCc1ccc(OP(C)(=O)O)cc1` as the compound, how does the inhibition read?
A: The inhibition was inactive: -3.97%.

Q: `Cc1c(NP(C)(=O)Oc2ccc(C(C)C)cc2)c(=O)n(-c2ccccc2)n1C` (stereo not given) was tested. Which inhibition did it give?
A: Its inhibition is inactive: -0.15%.

Q: How did the inhibition turn out when `COc1ccc(OP(C)(=O)Nc2ccccn2)cc1` (stereo not given) was run?
A: The inhibition was inactive: 0.43%.

Q: Which inhibition does the source give for `CN(C)CCOC(=O)C(O)(c1ccccc1)C1CCCC1` (stereo not given) here?
A: The inhibition was inactive: -9.67%.

Q: For `Cc1nc2ccc3ccccc3c2o1.O=[N+]([O-])c1cc([N+](=O)[O-])c(O)c([N+](=O)[O-])c1`, which inhibition is on record?
A: The inhibition was inactive: -7.98%.

Q: How did the inhibition turn out when `COc1ccccc1OP(C)(=O)Nc1ccc(C)c(C)c1` (stereo not given) was run?
A: The inhibition was inactive: -9.94%.

Q: With `CP(=O)(Nc1ccccc1)Oc1ccc(F)cc1` (stereo not given) as the compound, how does the inhibition read?
A: Its inhibition is inactive: -11.9%.

Q: For `CCN(CC)CCCOC(=O)C(O)(c1ccccc1)C1CCCCC1` (stereo not given), which inhibition is on record?
A: Its inhibition is inactive: -13.3%.

Q: How did the inhibition turn out when `CP(=O)(Nc1ccccc1F)Oc1ccccc1` (stereo not given) was run?
A: Its inhibition is inactive: -0.93%.

Q: `CP(=O)(Nc1ccc2c(c1)OCCO2)Oc1ccccc1` (stereo not given) was tested. Which inhibition did it give?
A: Its inhibition is inactive: -4%.

Q: `CCOP(C)(=S)SCC(=O)NC(C)(CC)C(=O)O` (stereo not given) was tested. Which inhibition did it give?
A: The inhibition was inactive: -8.41%.

Q: `CN(C)CCOC(=O)C(O)(c1ccccc1)C1CCCCC1` (stereo not given) was tested. Which inhibition did it give?
A: Its inhibition is inactive: -13.1%.

Q: How did the inhibition turn out when `COc1ccc(OP(C)(=O)Nc2cccc(Br)c2)cc1` (stereo not given) was run?
A: Its inhibition is inactive: -8.56%.
